Data published in publication PMC3677530 (Analytical biochemistry, 2013).

By UniProt entry, the sequences of proteins in these tests, tags left out.
UniProt P21554, whole entry: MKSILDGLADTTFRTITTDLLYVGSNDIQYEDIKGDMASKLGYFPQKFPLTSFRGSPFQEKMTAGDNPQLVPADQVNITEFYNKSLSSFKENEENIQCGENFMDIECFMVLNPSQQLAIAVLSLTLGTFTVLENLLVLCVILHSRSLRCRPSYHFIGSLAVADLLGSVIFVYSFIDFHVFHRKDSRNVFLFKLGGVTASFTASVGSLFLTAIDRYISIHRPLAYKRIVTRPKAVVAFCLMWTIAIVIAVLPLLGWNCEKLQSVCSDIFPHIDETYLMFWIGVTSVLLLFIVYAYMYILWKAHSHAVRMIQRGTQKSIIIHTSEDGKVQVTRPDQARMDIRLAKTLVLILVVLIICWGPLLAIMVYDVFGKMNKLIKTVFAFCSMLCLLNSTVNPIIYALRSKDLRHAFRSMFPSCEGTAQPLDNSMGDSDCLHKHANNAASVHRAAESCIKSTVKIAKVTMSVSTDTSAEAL
UniProt P34972, whole entry: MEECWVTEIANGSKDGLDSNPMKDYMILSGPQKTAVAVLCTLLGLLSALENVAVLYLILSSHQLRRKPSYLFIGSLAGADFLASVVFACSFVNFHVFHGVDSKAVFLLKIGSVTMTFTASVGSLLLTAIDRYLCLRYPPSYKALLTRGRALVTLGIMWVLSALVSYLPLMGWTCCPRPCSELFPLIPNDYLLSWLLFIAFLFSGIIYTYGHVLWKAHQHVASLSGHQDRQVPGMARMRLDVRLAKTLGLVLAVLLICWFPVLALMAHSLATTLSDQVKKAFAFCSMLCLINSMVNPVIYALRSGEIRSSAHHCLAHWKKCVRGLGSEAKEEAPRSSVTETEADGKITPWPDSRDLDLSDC

Columns and labels:
[1] = target: human cannabinoid CB1 receptor (Homo sapiens, UniProt P21554)
[2] = target: human cannabinoid CB2 receptor (Homo sapiens, UniProt P34972); conditions: CHO-CB2, data not shown

## Cc1c(C(=O)NN2CCCCC2)nn(-c2ccc(Cl)cc2Cl)c1-c1ccc(I)cc1 [AM251]
[1]
  inhibition of internalization (CB1): 39.6%

## Cc1c(C(=O)c2cccc3ccccc23)c2cccc3c2n1[C@H](CN1CCOCC1)CO3 [Win 55,212-2]
[2]
  CB2 internalization induced by agonist: failed to induce CB2 internalization
